Experimental data: patent US20130189203A1, “COSMETIC ADDITIVES CONTAINING ALKALI PHOSPHATES” (BK Giulini GmbH, priority 2012, published 2013)

Assay: stability of the sun protection formulations with additive

Sodium polyphosphate [Carephos N]
stability of the formulation with the additive: stable
